Data taken from patent publication US20100016547A1, “Glycosilated Peptide and Medicine Comprising It as an Effective Ingredient” (priority 2005, published 2010).

Chains of the proteins cited; added tags and fusions are not shown. Residues count along the entry.
UniProt P43220, 24-463, species assumed: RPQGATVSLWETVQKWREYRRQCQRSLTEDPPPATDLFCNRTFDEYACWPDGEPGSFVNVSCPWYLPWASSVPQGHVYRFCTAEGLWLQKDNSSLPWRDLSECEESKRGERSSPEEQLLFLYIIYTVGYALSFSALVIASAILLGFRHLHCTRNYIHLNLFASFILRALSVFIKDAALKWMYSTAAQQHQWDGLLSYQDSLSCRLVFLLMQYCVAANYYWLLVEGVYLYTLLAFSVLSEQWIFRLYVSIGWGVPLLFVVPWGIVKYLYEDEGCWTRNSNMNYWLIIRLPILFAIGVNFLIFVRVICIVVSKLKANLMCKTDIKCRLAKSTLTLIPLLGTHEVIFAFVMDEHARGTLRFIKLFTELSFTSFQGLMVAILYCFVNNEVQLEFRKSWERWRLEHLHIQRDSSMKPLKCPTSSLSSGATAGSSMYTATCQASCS

Legend:
GLP-1 receptor [1] = target: T1, GLP-1 receptor (Homo sapiens, UniProt P43220)
GLP-1 receptor [2] = target: T1, GLP-1 receptor; experiment: Assay for production of cAMP

In the case of CC[C@H](C)[C@H](NC(=O)[C@H](Cc1ccccc1)NC(=O)[C@H](CCC(=O)O)NC(=O)[C@H](CCCCN)NC(=O)[C@H](C)NC(=O)[C@H](C)NC(=O)[C@H](CCC(N)=O)NC(=O)CNC(=O)[C@H](CCC(=O)O)NC(=O)[C@H](CC(C)C)NC(=O)[C@H](Cc1ccc(O)cc1)NC(=O)[C@H](CO)NC(=O)[C@H](CO)NC(=O)[C@@H](NC(=O)[C@H](CC(=O)O)NC(=O)[C@H](CO)NC(=O)[C@@H](NC(=O)[C@H](Cc1ccccc1)NC(=O)[C@@H](NC(=O)CNC(=O)[C@H](CCC(=O)O)NC(=O)[C@H](C)NC(=O)[C@@H](N)Cc1c[nH]cn1)[C@@H](C)O)[C@@H](C)O)C(C)C)C(=O)N[C@@H](C)C(=O)N[C@@H](Cc1c[nH]c2ccccc12)C(=O)N[C@@H](CC(C)C)C(=O)N[C@H](C(=O)N[C@@H](CCCCN)C(=O)NCC(=O)N[C@@H](CCCNC(=N)N)C(=O)N[C@@H](CO)C(=O)NCC(=O)N[C@@H](CO)C(=O)NCC(=O)N[C@@H](CO)C(=O)NCC(=O)N[C@@H](CC(=O)N[C@@H]1O[C@H](CO)[C@@H](O[C@@H]2O[C@H](CO[C@]3(C(=O)O)C[C@H](O)[C@@H](NC(C)=O)[C@H]([C@H](O)[C@H](O)CO)O3)[C@H](O)[C@H](O)[C@H]2O)[C@H](O)[C@H]1NC(C)=O)C(N)=O)C(C)C [GLSGSGS43NS6], the IC50 (GLP-1 receptor [1]) is reported as 1 nM and the EC50 (GLP-1 receptor [2]) is reported as 0.11 nM.
